Molecular target: T1, recombinant HAstV2 capsid spike, histidine-tagged (Human astrovirus 2, Oxford strain …)
T1 chain: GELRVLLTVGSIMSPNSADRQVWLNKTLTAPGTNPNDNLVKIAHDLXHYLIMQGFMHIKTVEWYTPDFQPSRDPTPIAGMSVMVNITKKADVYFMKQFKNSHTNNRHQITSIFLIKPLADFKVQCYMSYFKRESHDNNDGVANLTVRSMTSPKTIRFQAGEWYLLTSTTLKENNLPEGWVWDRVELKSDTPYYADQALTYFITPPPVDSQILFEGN
Test: BLI

B1: recombinant Fab 4B6 (Fab, V domains shown)
VH: QVQLKESGPGLVAPSQSLSITCTVSGFSLTSYGVHWVRQPPGKGLEWLGVIWADGSTNYNSALMSRLSISKDNSKSQVFLKMNSLQTDDTAMYYCARWTYGDYFDYWGQGTTLTVSS
VL: DIQMTQTTSSLSASLGDRVTISCSASQGISNYLNWYQQKPDGTVKLLIYYTSSLHSGVPSRFSGSGSGTDYSLTISNLEPEDIATYYCQQYSKLPYTFGGGTKLEIK
Kd: 161 nM

From article PMC11419155 (bioRxiv, 2024)
